Assay results: patent US7906624B2, “Binding peptidomimetics and uses of the same” (The Trustees of the University of Pennsylvania, priority 2004, dated 2011)

Tested on: T6-17 cells injected subcutaneously into nude mice
Assay: T6-17 tumor growth in nude mice
Assay type: in vivo
Conditions: second (intraperitoneal) experiment, after day 10
Protocol: FIG. 6, panels A and B show inhibition of tumor growth by ASA. 1 million of T6-17 cells were injected subcutaneously into nude mice to induce the tumor growth. Panel A. Treatment of ASA started from day 0. Panel B. Treatment started on day 2 after tumor were palpable. NCR homozygous athymic (nude) mice (six to eight weeks-old) were purchased from the National Cancer Institute. To induce tumor, 10^6 transformed T6-17 cells were suspended in 100 μl of PBS and injected subcutaneously into the flank of each animal. Animals were maintained in accordance with guidelines of the Institutional Animal Care and Use Committee (IACUC) of the University of […]. Tumor volume was calculated by the formula: π*length*width*Height/6. T6-17 cells were transformed by the over-expression of human Her2/neu (ref). After introduced to nude mice subcutaneously, palpable tumors appear about 48-72 hours later. In one experiment, animals were treated with either streptavidin or ASA (11.25 mg/kg/week). Treatment stared from day 0 and was provided to animals by three subcutaneous injections each week. Treatment with ASA prevented the appearance of palpable tumor until day 7 and reduced the tumor size by 62% at day 14 (FIG. 6 Panel A). […]

## 4D5scFv: Single chain Fv of anti-HER2 antibody 4D5, comparator in the tumor experiment [reference compound]
  suppression of tumor growth: did not reveal significant suppression of tumor-growth-after day 10
